Measurements published in patent publication US20040259244A1, “Methods, compositions, and growth and differentiation factors for insulin-producing cells” (priority 2002, published 2004).

Tested on: conversion of stem cells into insulin producing cells
Type: cell-based
Details: statistical analysis of insulin content of supernatants, 3 donors, combinatorial array in alginate

Substance: CGRP alpha: Calcitonin Gene Related Peptide (ACDTATCVTHRLAGLLSRSGGVVKNNFVPTNVGSKAF; Calcitonin gene-related peptide 1; UniProt P06881 83-119, looked up)
- effect on the conversion of stem cells into insulin producing cells: potential negative effect
